# Values of other authors in PubChem BioAssay AID1811 (Shanghai Institute of Organic Chemistry, 2009).
# The other results are listed elsewhere or left out. Activity calls are given as the source filed them. Where no limit is named, active and inactive come without a cut-off here.
# Tested on: glutathione s-transferase 28 kda
# Experiment: PubChem AID 1811
# Settings: PDB complex binding affinities from literature
compound,measurement,value
N[C@H](CCC(=O)N[C@@H](CS)C(=O)NCC(=O)O)C(=O)O,outcome,active
